Target: 5-hydroxytryptamine receptor 2A (Homo sapiens, UniProt P28223)
Type: functional, cell-based, CHO-K1

The chains behind the UniProt entries cited, without tags or fusion partners.
UniProt P28223, whole entry: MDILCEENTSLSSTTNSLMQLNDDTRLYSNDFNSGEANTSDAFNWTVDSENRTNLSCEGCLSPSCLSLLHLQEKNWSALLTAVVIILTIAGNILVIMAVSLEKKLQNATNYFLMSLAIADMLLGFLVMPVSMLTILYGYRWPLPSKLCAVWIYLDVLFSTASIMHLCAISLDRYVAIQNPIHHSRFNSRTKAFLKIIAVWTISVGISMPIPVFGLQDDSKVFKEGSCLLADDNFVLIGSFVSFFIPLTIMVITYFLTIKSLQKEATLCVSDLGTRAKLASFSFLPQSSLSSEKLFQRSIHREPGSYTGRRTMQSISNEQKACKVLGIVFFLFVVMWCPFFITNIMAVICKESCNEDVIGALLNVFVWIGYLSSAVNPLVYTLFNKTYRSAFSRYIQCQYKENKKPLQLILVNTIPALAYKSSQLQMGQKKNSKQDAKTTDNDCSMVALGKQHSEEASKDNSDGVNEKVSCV

Question: Which EC50 does the source give for CNCCc1c[nH]c2cccc(O)c12 here?
Answer: The EC50 was 2.4 nM.

— ChEMBL document CHEMBL5344469, “Pioneering Methods in Brain Optimization and Mental Health Treatment” (ACS Med Chem Lett, 2024)
